Broadly, the mass density is the mass of a sample divided by its volume.

± gives the expanded uncertainty stated by the source.

Consider 2 molecules from the NIST ThermoML archive (doi:10.1021/je034007i).

For data set [1] the following is noted: 308.15 K; 101.33 kPa; Liquid; vibrating tube.
Data set [2] in a line: excess molar enthalpy (molar enthalpy of mixing); xn = mol fraction of the nth substance listed. To be noted: 308.15 K, 101.3 kPa, Liquid.

Regarding `OCCOCCOCCOCCO` [tetraethylene glycol], in data set [1], the mass density is recorded as 1112.28 ± 0.56 kg/m3.
In the case of `OCCOCCOCCOCCO` [tetraethylene glycol] + C[S+](C)[O-], the excess molar enthalpy was -0.0263 ± 0.000789 kcal/mol in data set [2] (x1 = 0.0169); -0.0483 ± 0.00112 kcal/mol in data set [2] (x1 = 0.0332); -0.0692 ± 0.00148 kcal/mol in data set [2] (x1 = 0.049); -0.0873 ± 0.00179 kcal/mol in data set [2] (x1 = 0.0643); -0.118 ± 0.00232 kcal/mol in data set [2] (x1 = 0.0934); -0.144 ± 0.00287 kcal/mol in data set [2] (x1 = 0.1208). Further, the excess molar enthalpy in data set [2] (x1 = 0.1709) is -0.177 ± 0.00335 kcal/mol; in data set [2] (x1 = 0.2155), -0.2 ± 0.00382 kcal/mol; in data set [2] (x1 = 0.2919), -0.22 ± 0.00406 kcal/mol; in data set [2] (x1 = 0.3818), -0.227 ± 0.0043 kcal/mol; in data set [2] (x1 = 0.4519), -0.226 ± 0.0043 kcal/mol; in data set [2] (x1 = 0.5529) it was -0.216 ± 0.00406 kcal/mol. For the same molecule, the excess molar enthalpy is -0.202 ± 0.00382 kcal/mol in data set [2] (x1 = 0.6225); -0.178 ± 0.00335 kcal/mol in data set [2] (x1 = 0.7121); -0.161 ± 0.00311 kcal/mol in data set [2] (x1 = 0.7673); -0.133 ± 0.00263 kcal/mol in data set [2] (x1 = 0.8318); -0.0839 ± 0.00174 kcal/mol in data set [2] (x1 = 0.9082).
